# Reference: PubChem BioAssay AID1326 (NMMLSC, 2008)
# By UniProt entry, the sequences of proteins in these tests, tags left out.
# UniProt P08183, whole entry: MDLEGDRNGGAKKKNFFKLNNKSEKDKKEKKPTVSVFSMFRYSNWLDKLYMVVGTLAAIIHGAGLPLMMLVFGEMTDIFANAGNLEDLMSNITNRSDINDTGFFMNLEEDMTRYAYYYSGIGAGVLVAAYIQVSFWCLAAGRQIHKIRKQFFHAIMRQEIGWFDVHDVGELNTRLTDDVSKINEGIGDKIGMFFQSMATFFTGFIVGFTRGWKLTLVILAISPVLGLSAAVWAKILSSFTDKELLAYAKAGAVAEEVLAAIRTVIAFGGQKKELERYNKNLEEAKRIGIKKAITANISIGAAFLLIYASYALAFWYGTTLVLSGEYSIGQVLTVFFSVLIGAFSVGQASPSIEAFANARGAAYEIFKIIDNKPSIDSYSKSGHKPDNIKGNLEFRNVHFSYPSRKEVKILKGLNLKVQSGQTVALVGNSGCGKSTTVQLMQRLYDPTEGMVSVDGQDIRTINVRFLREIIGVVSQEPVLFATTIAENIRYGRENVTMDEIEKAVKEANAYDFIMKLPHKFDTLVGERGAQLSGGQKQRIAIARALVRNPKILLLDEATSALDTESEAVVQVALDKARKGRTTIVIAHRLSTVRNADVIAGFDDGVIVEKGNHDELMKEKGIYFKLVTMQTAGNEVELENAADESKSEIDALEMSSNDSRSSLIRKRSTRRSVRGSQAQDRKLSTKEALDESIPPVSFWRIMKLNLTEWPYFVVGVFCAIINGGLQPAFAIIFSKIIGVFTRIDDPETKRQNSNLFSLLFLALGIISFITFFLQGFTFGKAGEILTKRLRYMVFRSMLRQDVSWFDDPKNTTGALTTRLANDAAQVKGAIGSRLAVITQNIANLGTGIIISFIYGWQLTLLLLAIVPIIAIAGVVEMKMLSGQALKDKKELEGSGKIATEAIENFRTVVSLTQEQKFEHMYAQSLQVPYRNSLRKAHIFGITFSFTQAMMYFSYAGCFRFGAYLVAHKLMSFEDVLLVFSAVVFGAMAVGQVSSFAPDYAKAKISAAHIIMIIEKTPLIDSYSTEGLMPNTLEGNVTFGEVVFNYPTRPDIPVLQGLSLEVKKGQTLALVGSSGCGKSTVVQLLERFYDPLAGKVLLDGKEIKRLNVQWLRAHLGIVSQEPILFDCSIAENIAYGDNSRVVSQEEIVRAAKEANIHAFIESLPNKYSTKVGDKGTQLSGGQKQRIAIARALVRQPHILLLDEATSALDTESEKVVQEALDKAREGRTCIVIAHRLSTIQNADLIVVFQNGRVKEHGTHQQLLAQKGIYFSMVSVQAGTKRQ
# This is a selection; strong and weak results do not stand in their true shares. Active and inactive are the calls of the source. Rule as the data show it: active = inhibition above about 40%; inactive = the rest.
# Molecular target: ATP-dependent translocase ABCB1 (Homo sapiens) (UniProt P08183)
# Experiment: ABCB1 efflux pump inhibitors, primary screen, cell-based, multiplex, flow cytometry, ABCG2 counter-screen (AID 1326);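 also: 0% = vehicle and 100% = reference inhibitor; higher value means more JC-1 retained so stronger ABCB1 efflux block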
# Details: CCRF-Adr cells, JC-1 efflux, at 6.6 µM, hits give high values
row,Compound,inhibition
1,COc1ccc(NC2CCN(CCc3ccccc3)CC2)c(OC)c1,inactive: 1.86%
2,COc1ccc(C(=O)NCC2(N3CCCCC3)CCCCC2)c(OC)c1OC,inactive: 0.02%
3,CCOC(=O)N1CCC(Nc2ccc(OC)cc2)CC1,inactive: 0.95%
4,O=C(OC1CN2CCC1CC2)C1c2ccccc2Oc2ccccc21 (stereo not given),inactive: 0.33%
5,O=C(NCC1(N2CCOCC2)CCCCC1)c1cc2ccccc2o1,inactive: 0.1%
6,COc1ccc(CN(CCCl)CCCl)cc1Cl,inactive: 0.59%
7,CN(C)c1cccc(C(=O)NCC2(N3CCCCC3)CCCCC2)c1,inactive: -0.4%
8,CC(C)c1ccc(NC2CCN(C(=O)OC(C)(C)C)CC2)cc1,inactive: 0.06%
9,O=C(NCC1(N2CCCCC2)CCCCC1)c1cccc([N+](=O)[O-])c1,inactive: 0.4%
10,N#CC1(Nc2ccccc2)CCN(CCc2ccccc2)CC1,inactive: 0.53%
11,COc1ccc(NC2CCN(C(=O)OC(C)(C)C)CC2)cc1,inactive: 0.74%
12,CN1CCN(CCOC(=O)C(O)(c2ccccc2)c2ccccc2)CC1,inactive: 1%
13,O=C(NCC1(N2CCOCC2)CCCCC1)c1cc(=O)[nH]c2ccccc12,inactive: -0.4%
14,N#Cc1ccc(C(=O)NCC2(N3CCCCC3)CCCCC2)cc1,inactive: -0.36%
15,c1ccc(CN2CCC(Nc3ccccc3)CC2)cc1,inactive: 0.21%
16,COc1ccc(C(=O)NCC2(N3CCOCC3)CCCCC2)cc1OC,inactive: 0.67%
17,O=C(OC1CN2CCC1CC2)C1c2ccccc2C=Cc2ccccc21 (stereo not given),inactive: 0.81%
18,N/C(=N\O)c1c(N)no[n+]1[O-],inactive: 0.35%
19,CC(C)(C)OC(=O)N1CCC(Nc2ccccc2)CC1,inactive: 0.33%
20,CCOc1ncccc1C(=O)NCC1(N2CCOCC2)CCCCC1,inactive: -0.06%
21,CCC(CO)(C(=O)OC1CN2CCC1CC2)c1ccccc1 (stereo not given),inactive: 0.58%
22,COc1cc(OC)cc(C(=O)NCC2(N3CCOCC3)CCCCC2)c1,inactive: 0.09%
23,Fc1ccccc1NC1CCN(Cc2ccccc2)CC1,inactive: 1.78%
24,CN(C)c1ccc(C(=O)NCC2(N3CCCCC3)CCCCC2)cc1,inactive: 0.22%
25,CCN1CCC(Nc2cccc(F)c2)CC1,inactive: 0.49%
